Several values for one entry are separate records, joined by “and”; a condition that tells them apart may be missing. Equal entries are not always repeated.

For this data set the following is noted: average value for three measurements.
Regarding `N[C@@H](CCC(=O)N[C@@H](CS)C(=O)NCC(=O)O)C(=O)O` [Commercial product A], the Angle of repose was determined as 56 degrees.

`N[C@@H](CCC(=O)N[C@@H](CS)C(=O)NCC(=O)O)C(=O)O` [Example 1, gamma-L-glutamyl-L-cysteinyl glycine]: the Angle of repose was found to be 48 degrees.

With `N[C@@H](CCC(=O)N[C@@H](CS)C(=O)NCC(=O)O)C(=O)O` [Example 2, gamma-L-glutamyl-L-cysteinyl glycine], the Angle of repose is 51 degrees and 52 degrees.

The values are drawn from patent US8188308B2 (Kyowa Hakko Bio Co., Ltd., priority 2006, dated 2012).
